# Reference: article PMC10452409, “Nanodroplet-Based Reagent Delivery into Water-in-Fluorinated-Oil Droplets” (Biosensors, 2023)
# Test system: p53 Quenchbody
# Conditions: by comparison to a standard curve measured in bulk condition
compound,measurement,setting,value
CC(C)C[C@H](NC(=O)[C@H](CC(=O)O)NC(=O)[C@H](CO)NC(=O)[C@H](Cc1ccccc1)NC(=O)[C@@H](NC(=O)[C@H](CCC(=O)O)NC(=O)[C@H](CCC(N)=O)NC(=O)[C@H](CO)NC(=O)[C@H](CC(C)C)NC(=O)[C@@H]1CCCN1C(=O)[C@@H]1CCCN1C(=O)[C@@H](N)CCC(=O)O)[C@@H](C)O)C(=O)N[C@@H](Cc1c[nH]c2ccccc12)C(=O)N[C@@H](CCCCN)C(=O)N[C@@H](CC(C)C)C(=O)N[C@@H](CC(C)C)C(=O)N1CCC[C@H]1C(=O)N[C@@H](CCC(=O)O)C(=O)N[C@@H](CC(N)=O)C(=O)N[C@@H](CC(N)=O)C(=O)O [human p53 peptide],average peptide concentration inside the microdroplets,after 3 h incubation with nanodroplets,~ 28 nM
same,peptide concentration inside the microdroplets,after a total of 24 h incubation with nanodroplets,34 nM
